Values of other authors as cited in PMC3969379, “Neospora caninum Calcium-Dependent Protein Kinase 1 Is an Effective Drug Target for Neosporosis Therapy” (PLoS ONE, 2014).

Tested on: N. caninum
Conditions: prolonged administration; cited from earlier work

Question: For `CCC[C@@H]1C[C@@H](C(=O)N[C@@H]([C@H]2O[C@H](SC)[C@H](O)[C@@H](O)[C@H]2O)[C@H](C)Cl)N(C)C1` [clindamycin], which “cases of canine neosporosis with clinical signs eliminated” value is on record?
Answer: less than 40%
